## Antibody variant affinities, Ab-14 light chain, assay B

From the AlphaSeq antibody data of Li et al. 2023 (doi:10.1038/s41467-023-39022-2), copy in the FLAb collection.

Target peptide (SARS-CoV-2 spike, HR2 region): PDVDLGDISGINAS

Each scFv is VH, three GGGGS repeats, VL, as in the parent Ab-14, and differs from it in the CDRs of the light chain only.
VH: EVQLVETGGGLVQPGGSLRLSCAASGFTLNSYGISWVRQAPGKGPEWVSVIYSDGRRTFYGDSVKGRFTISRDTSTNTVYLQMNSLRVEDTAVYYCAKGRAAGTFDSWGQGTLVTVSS
VL: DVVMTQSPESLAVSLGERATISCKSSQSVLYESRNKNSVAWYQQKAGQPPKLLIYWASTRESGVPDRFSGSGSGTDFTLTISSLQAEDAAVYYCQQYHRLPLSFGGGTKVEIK

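This is the validation round: designs drawn from the data on random variants, tested in the same kind of assay. Group labels follow the data file (Ctrl: baseline library sampled from a position-specific scoring matrix, with some repeated check sequences; Rand: our label for a block that the file lists under HC and that is probably the random mutants of the ten best first-round binders; En: ensemble of fine-tuned language models; GP: Gaussian process model; HC: hill climbing; Gen: genetic algorithm; Gibbs: Gibbs sampling; a sequence that several methods proposed may carry one label only). In AlphaSeq, yeast of one mating type display the scFv and yeast of the other type display the target. Pairs that bind mate more often; barcode pairs of the diploids are counted by sequencing. A regression on co-assayed BCL2-family reference pairs converts the normalised counts of each replicate to an apparent Kd. Each pool was mated in six replicate cultures.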

Each variant is given by its three light chain CDRs, as the data file delimits them; those of the parent are KSSQSVLYESRNKNSVA, WASTRES, QQYHRLPLS. Numbers give log10(Kd / nM), so 0 is 1 nM and 3 is 1 µM. Smaller is tighter. Replicates are averaged; those with no signal do not enter the mean. Where no diploid with the target was found in any replicate, the entry reads "not detected": below detection, most likely a poor binder, though not proof of it.

| CDR-L1 | CDR-L2 | CDR-L3 | group | mean, log10 nM | seen in |
|---|---|---|---|---|---|
| TISQVMNTMTRHGNNVA | DLAERES | QQYFRLPLS | En_Gen | 0.84 | 6 of 6 |
| HMSMLTLMGMRQRNSVA | QMTMREN | QQYDRLPLT | En_Gen | 1.53 | 6 of 6 |
| IVSQVMSWGLHAKNSIA | EAQTRIN | QQYDRLPLF | En_Gen | 1.10 | 6 of 6 |
| KSSQSCLKESRNKNHMA | QAWTRES | QQYHRLPLS | Ctrl | not detected | 0 of 6 |
| KFSQKVLYEQRTKNSVA | NASTRES | QQYHRLPLS | GP_HC | 0.22 | 6 of 6 |
| KLSQSVPYESRMKNSVA | NASTRES | QQYHRLPLS | GP_Gen | 0.57 | 6 of 6 |
| KSSGSFLYESRNKNSVA | EASTRES | QQYHRLPLS | GP_HC | -0.03 | 6 of 6 |
| MISDLTYYGLRNVNNVA | DLSTRGN | QQYDRLPLS | En_HC | 1.33 | 6 of 6 |
| SQMQSVLYESRNKNSVA | WALTHES | QQYKRLPLS | Ctrl | not detected | 0 of 6 |
| KLPLATMQESVSKNNVA | ELSTRGS | QQYHRLPLS | En_HC | 0.87 | 6 of 6 |
| KISQLVNFEGKNKNSVA | QMSTREE | QQYDRLPLS | En_HC | 0.28 | 6 of 6 |
| KSSGSVLYELRNKNSVA | WASTRES | QQYHRLPLS | Ctrl | not detected | 0 of 6 |
| ISSQSVLDESRNKNSVA | DASTRES | QQYHRLPLS | Rand | 0.13 | 6 of 6 |
| KLSQSMLYESRNKNSVA | NASERES | QQYHRLPLS | GP_Gen | -0.25 | 6 of 6 |
| SLFESEREELSVEQNIA | DGTEHMR | QQYFQLPLL | En_Gibbs | 1.84 | 4 of 6 |
| MISQLFNMGQFAINSVA | QASVRNE | QQYDRLPLM | En_Gen | 2.67 | 6 of 6 |
| KLRQSTLQESRNKNSVA | WASTRES | QQYHRLELS | Rand | not detected | 0 of 6 |
| KLYQSMGYLSRNKNSIA | DMDRREN | QQYHRLPLS | En_HC | 0.05 | 6 of 6 |
| KLPNSTLYESRNKNSVA | WASTRES | QQYHRLPLS | GP_HC | 0.98 | 5 of 6 |
| KQSQAFLGESRNKNSVA | DANTRES | QQYHRLPLS | GP_HC | 0.09 | 6 of 6 |
| MMSQVTGQGTRHRNNVA | QTETREP | QQYDRLPLI | En_Gen | 2.02 | 6 of 6 |
| KSSQSVLYEKRNKNSVA | WASTRES | DQYHRLPLS | Ctrl | not detected | 0 of 6 |
| HCSPSVLYRSRNKNSVA | NASTRES | QQYPRLPLS | Rand | not detected | 0 of 6 |
| MISQLYNMGQFAINSVA | QASIRNQ | QQYDRLPLI | En_Gen | 1.51 | 6 of 6 |
| KISQLVNFEGKNKNSVA | QMSTREQ | QQYDRLPLS | En_HC | 0.50 | 6 of 6 |
| KMSQEAMMLSRNHNSVA | QASTREQ | QQYHRLPLS | GP_Gibbs | -0.08 | 6 of 6 |
| KSSLSYLYESRNTNSVA | EASTRES | QQYHRLPLS | GP_HC | 0.06 | 6 of 6 |
| KSAQSVLSESRNKNSVA | DASTLES | QQYHRLPLS | Ctrl | 0.76 | 6 of 6 |
| MLGDVTRMESNKKNSIA | DMSTRES | QQYHRLPLS | En_HC | -0.14 | 6 of 6 |
| KLGGLMTWEEKARNSVA | QQETRAE | QQYHHLPLS | En_HC | 0.99 | 6 of 6 |
| KISQMARVGQTHGNSIA | EEATRAK | QQYHRLPLA | En_Gen | 1.36 | 6 of 6 |
| KLSTSVLYGKRNKNSVA | QASQRMS | QQYHRLPLS | GP_Gibbs | 1.19 | 6 of 6 |
| QINHFGLSANLNSKNVA | AKNLRVD | QQYNRLPLS | En_Gibbs | -0.13 | 6 of 6 |
| KISMLINMTFEQSNNVA | EMATREK | QQYNRLPLS | En_Gen | 0.61 | 6 of 6 |
| ALGDVTRMESNKKNSIA | DMSNRED | QQYHRLPLS | En_HC | -0.38 | 6 of 6 |
| KSSQSVLYESRNKNSVA | WASTTES | QQYHRLPLS | Ctrl | 1.75 | 1 of 6 |
| KRSQSVLYESRNKNSVA | WASTRES | QSYHRLPLS | Ctrl | 2.24 | 2 of 6 |
| KVSQSWLYESRNKNAVA | EASQRES | QQYHRLPLS | GP_Gen | -0.32 | 6 of 6 |
| KVPGENDYESRNKNSVA | EASTRES | QDYHRLPLS | GP_Gibbs | 1.09 | 6 of 6 |
| KVQQSVLYESRNKNSVA | NASQRLS | QQYHRLPLS | GP_Gen | -0.14 | 6 of 6 |
| KFDDLMVEWDANQSQVA | DHAEAQH | QQYDRLPLS | En_Gibbs | not detected | 0 of 6 |
| KSSISYLYESRNQNSVA | EASTREQ | QQYHRLPLS | GP_HC | 0.36 | 6 of 6 |
| KSSQGGLYESLNKNSVA | WASVRES | QQYHVLPLT | Ctrl | 1.72 | 6 of 6 |
| KSSQSVLYEHRNTNSVA | WASTRES | QQYYRLPLS | Ctrl | 1.44 | 5 of 6 |
| HMKDEPGLGPQTYSSVA | HANIREP | QQYYRLPLM | En_Gibbs | 0.45 | 6 of 6 |
| KIGQTLNQLMHQKNNVA | DLVMREK | QQYTRLPLS | En_Gen | 0.49 | 6 of 6 |
| KLSQSVLYEERNKNSVA | QASTRES | QQYHRLPLS | GP_Gen | 0.18 | 6 of 6 |
| SLDSAVAYDLQNKKNIA | EETRVDR | QQYAHLPLM | En_Gibbs | 0.40 | 6 of 6 |
| KLGMTAEMELKNRNSVA | ELVTREN | QQYNRLPLS | En_Gen | 0.47 | 6 of 6 |
| KLWYAMDMFQGEANAVA | DQQLTRE | QQYARLPLS | En_Gibbs | 2.09 | 1 of 6 |
| KSSISQLEESRNKNSVA | EASTRES | QQYHALPLS | GP_HC | 0.79 | 6 of 6 |

Repeated from above, the 7 best binders with a signal in all replicates:

CDR-L1	CDR-L2	CDR-L3	group	mean, log10 nM	seen in
ALGDVTRMESNKKNSIA	DMSNRED	QQYHRLPLS	En_HC	-0.38	6 of 6
KVSQSWLYESRNKNAVA	EASQRES	QQYHRLPLS	GP_Gen	-0.32	6 of 6
KLSQSMLYESRNKNSVA	NASERES	QQYHRLPLS	GP_Gen	-0.25	6 of 6
MLGDVTRMESNKKNSIA	DMSTRES	QQYHRLPLS	En_HC	-0.14	6 of 6
KVQQSVLYESRNKNSVA	NASQRLS	QQYHRLPLS	GP_Gen	-0.14	6 of 6
QINHFGLSANLNSKNVA	AKNLRVD	QQYNRLPLS	En_Gibbs	-0.13	6 of 6
KMSQEAMMLSRNHNSVA	QASTREQ	QQYHRLPLS	GP_Gibbs	-0.08	6 of 6

The authors averaged sequences with at least three values out of six and counted those with two or fewer as poor binders. A sequence measured in both rounds can read differently, since the two assays cover different ranges. Three control strains display no target. For all light chain designs, 4% of the pairings with them gave a signal, with a median of 2.64 and one signal in twenty below 1.59, so weak values seen in few replicates may be background. Of ten entries with the parent sequence, four were seen in most replicates (averages 0.34 to 2.37), three in one and three in none, so single entries are noisy.